The target of test [1] is human Axl receptor on human Schwann cells (human) (UniProt P30530).
Test [2] deals with human Rse receptor on human Schwann cells (human) (UniProt Q06418).

In turn, recombinant human gas6 (ligand) yielded a gas6 concentration at which activation of Axl could be detected in test [1] of 1.4 to 14 µM. In addition, the gas6 concentration at which activation of Rse could be detected in test [2] lay within 1.4 to 14 µM.
